The values that follow come from patent publication US9884844B2 (priority 2012, dated 2018).

The chains behind the UniProt entries cited, without tags or fusion partners. Where a name states a change or a piece, a line headed by the entry shows the natural chain unless it says otherwise.
UniProt P41146: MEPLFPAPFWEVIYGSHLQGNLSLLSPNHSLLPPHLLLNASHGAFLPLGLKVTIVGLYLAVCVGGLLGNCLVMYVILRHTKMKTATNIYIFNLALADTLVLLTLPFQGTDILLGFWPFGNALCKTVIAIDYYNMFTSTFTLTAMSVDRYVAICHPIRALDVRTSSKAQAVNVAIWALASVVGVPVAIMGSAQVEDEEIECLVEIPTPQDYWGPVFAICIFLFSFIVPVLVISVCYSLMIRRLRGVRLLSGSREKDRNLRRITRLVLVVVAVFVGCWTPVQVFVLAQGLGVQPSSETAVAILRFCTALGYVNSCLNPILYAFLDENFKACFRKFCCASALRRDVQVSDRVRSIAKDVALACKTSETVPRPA

A value given as a limit tells only on which side of the number the result lay.

This test concerns the target human NOP (Homo sapiens, UniProt P41146). The test is described as follows: cAMP assay on cells expressing human NOP (NOP assay). The settings on record: read-out: NOP EC50, HEK cells expressing human NOP.
With `CNC(=O)C[C@@]1(C)C(=O)N(C2CCN([C@H]3c4cccc5cccc(c45)C3(F)F)CC2)c2ccccc21`, the EC50 lay in the range of 100 to 1000 nM. Consider `CNC(=O)CC1(O)C(=O)N(C2CCN(C3c4cccc5cccc(c45)C3(C)C)CC2)c2ccccc21` (stereo not drawn), for which the EC50 lay within 100 to 1000 nM.

As to `COCCC1(O)C(=O)N(C2CCN([C@@H]3Cc4cccc5cccc3c45)CC2)c2ccccc21` (stereo partly drawn), the EC50 was greater than 5000 nM. Turning to `CC1(Cc2ncn[nH]2)C(=O)N(C2CCN(C3c4cccc5cccc(c45)C3O)CC2)c2ccccc21` (stereo not drawn), the EC50 was greater than 5000 nM. As to `CNC(=O)CC1(O)C(=O)N(C2CCN(C3(C)Cc4cccc5cccc3c45)CC2)c2ccccc21` (stereo not drawn), the EC50 is less than 100 nM. `CNC(=O)C[C@@]1(O)C(=O)N(C2CCN([C@@H]3Cc4cccc5cccc3c45)CC2)c2ccccc21`: the EC50 lay in the range of 100 to 1000 nM.

Consider `Cc1cccc2cccc(CN3CCC(N4C(=O)C(O)(CC(O)CN)c5ccccc54)CC3)c12` (stereo not drawn), for which the 50% effective concentration (EC50) lay within 1000 to 5000 nM. As for `CNC(=O)CC1C(=O)N(C2CCN(C3c4cccc5cccc(c45)[C@@H]3C)CC2)c2ccccc21` (stereo partly drawn), the EC50 is less than 100 nM. On to `CNC(=O)CC1C(=O)N(C2CCN(C3CC[C@H]4CCCc5cccc3c54)CC2)c2ccccc21` (stereo partly drawn), for which the EC50 is less than 100 nM. The same measure for `CNC(=O)CC1C(=O)N(C2CCN(C3Cc4cccc5ccc(OC)c3c45)CC2)c2ccccc21` (single isomer, unassigned): less than 100 nM; for `CN(C)C(=O)CC1(C)C(=O)N(C2CCN(C3Cc4cccc5cccc3c45)CC2)c2ccccc21` (stereo not drawn): less than 100 nM. The same measure for `CNC(=O)CC1(O)C(=O)N(C2CCN(C3Cc4cccc5cccc3c45)CC2)c2ccccc21` (stereo not drawn): less than 100 nM; for `CNC(=O)CC1(O)C(=O)N(C2CCN(Cc3cccc4cccc(C)c34)CC2)c2ccccc21` (stereo not drawn): less than 100 nM.

As for `NC(=O)C1CC12C(=O)N(C1CCN(C3Cc4cccc5cccc3c45)CC1)c1ccccc12` (stereo not drawn), the EC50 was less than 100 nM.

Take `CC1(CC(O)CN)C(=O)N(C2CCN(C3Cc4cccc5cccc3c45)CC2)c2ccccc21` (stereo not drawn): the EC50 was 100 to 1000 nM. The same measure for `CNC(=O)CC1(O)C(=O)N(C2CCN(C3(C)CCc4ccccc43)CC2)c2ccccc21` (stereo not drawn): less than 100 nM; for `Cc1cccc2cccc(CN3CCC(N4C(=O)C(O)(CC5CNC(=O)O5)c5ccccc54)CC3)c12` (stereo not drawn): 1000 to 5000 nM; for `CNC(=O)CC1(O)C(=O)N(C2CCN([C@H]3c4cccc5cccc(c45)[C@@H]3O)CC2)c2ccccc21` (stereo partly drawn): less than 100 nM.

Regarding `CNC(=O)CC1(C)C(=O)N(C2CCN(C3(C)Cc4cccc5cccc(c45)C3)CC2)c2ccccc21` (stereo not drawn), the EC50 is greater than 5000 nM. Take `CN(C)C(=O)CC1(C)C(=O)N(C2CCN([C@H]3c4cccc5cccc(c45)[C@@H]3O)CC2)c2ccccc21` (stereo partly drawn): the EC50 was less than 100 nM.

With `CNC(=O)CC1(O)C(=O)N(C2CCN(C3c4cccc5cccc(c45)C3C)CC2)c2ccccc21` (stereo not drawn), the EC50 is less than 100 nM. On to `CNC(=O)C(C)C1(F)C(=O)N(C2CCN(C3Cc4cccc5cccc3c45)CC2)c2ccccc21` (stereo not drawn), for which the EC50 is less than 100 nM. As to `CNC(=O)CC1(OC)C(=O)N(C2CCN(C3Cc4cccc5cccc3c45)CC2)c2ccccc21` (stereo not drawn), the EC50 is less than 100 nM. Consider `CN1C(=O)NCC12C(=O)N(C1CCN(C3Cc4cccc5cccc3c45)CC1)c1ccccc12` (stereo not drawn), for which the EC50 is less than 100 nM. The same measure for `CNC(=O)CC1(O)C(=O)N(C2CCN(C3Cc4cccc5c4C3N(C)CC5)CC2)c2ccccc21` (stereo not drawn): greater than 5000 nM. For the compound `CNC(=O)C[C@@]1(O)C(=O)N(C2CCN([C@@H]3c4cccc5cccc(c45)[C@H]3O)CC2)c2ccccc21`, the EC50 was 100 to 1000 nM. As to `O=C1N(C2CCN(C3Cc4cccc5cccc3c45)CC2)c2ccccc2C1(O)Cc1ncco1` (stereo not drawn), the EC50 is greater than 5000 nM. The same measure for `CNC(=O)C[C@@]1(O)C(=O)N(C2CCN([C@H]3c4cccc5cccc(c45)[C@@H]3O)CC2)c2ccccc21`: less than 100 nM. The same measure for `CNC(=O)CC1(OC)C(=O)N(C2CCN(CCC(Oc3cc(OC)ccc3Cl)C(C)C)CC2)c2ccccc21` (stereo not drawn): 100 to 1000 nM. Regarding `CNC(=O)CC1(O)C(=O)N(C2CCN(C3(C)CCCc4ccccc43)CC2)c2ccccc21` (stereo not drawn), the EC50 is less than 100 nM. In the case of `CNC(=O)CC1(O)C(=O)N(C2CCN([C@H]3c4ccccc4CC[C@@H]3O)CC2)c2ccccc21` (stereo partly drawn), the EC50 lay in the range of 100 to 1000 nM. Take `O=C1NCC2(O1)C(=O)N(C1CCN(C3Cc4cccc5cccc3c45)CC1)c1ccccc12` (stereo not drawn): the EC50 was less than 100 nM. Take `NC(=O)[C@H]1CC12C(=O)N(C1CCN(C3Cc4cccc5cccc3c45)CC1)c1ccccc12` (stereo partly drawn): the EC50 was less than 100 nM. As to `CNC(=O)CC1(C)C(=O)N(C2CCN(CCC(Oc3cccc(OC)c3)C(C)C)CC2)c2ccccc21` (stereo not drawn), the EC50 is 100 to 1000 nM. Consider `O=C1CC2(CN1)C(=O)N(C1CCN(C3Cc4cccc5cccc3c45)CC1)c1ccccc12` (stereo not drawn), for which the EC50 was less than 100 nM. Take `CNC(=O)CC1(C)C(=O)N(C2CCN(CCC(Oc3cc(OC)ccc3Cl)C(C)C)CC2)c2ccccc21` (stereo not drawn): the EC50 is less than 100 nM. Turning to `C[C@H](O)CC1(O)C(=O)N(C2CCN(C3Cc4cccc5cccc3c45)CC2)c2ccccc21` (stereo partly drawn), the EC50 is greater than 5000 nM. Turning to `CNC(=O)C[C@@]1(F)C(=O)N(C2CCN(C3c4cccc5cccc(c45)[C@H]3O)CC2)c2ccccc21` (single isomer, unassigned), the EC50 was greater than 5000 nM. The same measure for `CNC(=O)CC1C(=O)N(C2CCN(Cc3cccc4cccc(C)c34)CC2)c2ccccc21` (stereo not drawn): less than 100 nM. With `COc1ccc(Cl)c(OC(CCN2CCC(N3C(=O)C(O)(CC(=O)N(C)C)c4ccccc43)CC2)C(C)C)c1` (stereo not drawn), the EC50 lay within 100 to 1000 nM. `CNC(=O)C[C@@]1(C)C(=O)N(C2CCN([C@@]3(C)Cc4cccc5cccc3c45)CC2)c2ccccc21` (single isomer, unassigned): the EC50 was less than 100 nM.

Take `CNC(=O)C[C@]1(C)C(=O)N(C2CCN([C@@H]3c4ccccc4CC[C@H]3O)CC2)c2ccccc21`: the EC50 was greater than 5000 nM.

As for `O=C1C(CC(O)CN(Cc2ccccc2)Cc2ccccc2)c2ccccc2N1C1CCN(C2Cc3cccc4cccc2c34)CC1` (stereo not drawn), the EC50 is greater than 5000 nM. As to `CNC(=O)C[C@]1(O)C(=O)N(C2CCN([C@H]3Cc4cccc5cccc3c45)CC2)c2ccccc21`, the EC50 was less than 100 nM. In the case of `CNC(=O)C[C@]1(C)C(=O)N(C2CCN([C@@]3(C)Cc4cccc5cccc3c45)CC2)c2ccccc21` (single isomer, unassigned), the EC50 was less than 100 nM. With `CN(C)CC(O)CC1(C)C(=O)N(C2CCN(C3Cc4cccc5cccc3c45)CC2)c2ccccc21` (stereo not drawn), the EC50 is greater than 5000 nM. `CN1CC2(C(=O)N(C3CCN(C4Cc5cccc6cccc4c56)CC3)c3ccccc32)N(C)C1=O` (stereo not drawn): the EC50 is less than 100 nM.

Regarding `CNC(=O)CC1(O)C(=O)N(C2CCN(C3Cc4cccc5ccc(OC)c3c45)CC2)c2ccccc21` (stereo not drawn), the EC50 was less than 100 nM.

Turning to `CNC(=O)C[C@]1(C)C(=O)N(C2CCN([C@H]3CCCc4ccccc43)CC2)c2ccccc21`, the EC50 was less than 100 nM. Regarding `CNC(=O)CC1(F)C(=O)N(C2CCN([C@H]3c4cccc5cccc(c45)[C@@H]3O)CC2)c2ccccc21` (stereo partly drawn), the EC50 was greater than 5000 nM.

As to `COCCC1(C)C(=O)N(C2CCN([C@@H]3Cc4cccc5cccc3c45)CC2)c2ccccc21` (stereo partly drawn), the EC50 is less than 100 nM.

Take `COc1ccc(Cl)c(OC(CCN2CCC(N3C(=O)C(O)(CC(N)=O)c4ccccc43)CC2)C(C)C)c1` (stereo not drawn): the EC50 was less than 100 nM. As for `CNC(=O)C1CC12C(=O)N(C1CCN(C3Cc4cccc5cccc3c45)CC1)c1ccccc12` (stereo not drawn), the EC50 lay in the range of 1000 to 5000 nM. For the compound `CNC(=O)C[C@@]1(C)C(=O)N(C2CCN([C@@]3(C)CCc4ccccc43)CC2)c2ccccc21`, the EC50 is less than 100 nM.
